The results in this text go back to patent US20080098491A1, “MOUSE MODELS TO STUDY CACHEXIA” (ZOLTAN LABORATORIES LLC, priority 2006, published 2008).

The subject of this assay is MXT mouse mammary tumor. The experiment in a line: Cisplatin-treated MXT tumor-bearing animals, human albumin (separate experiments, data not shown). The format is in vivo. The following applies: 16-mg per 1-kg s.c. The procedure: Experiment 2. The commercial PALP used in this model for Exp. 1 was composed of PALP (˜10%), TF (˜12%), AT (˜30%), albumin (˜35%) and the degradation products of TF (˜13%). […] In this experiment, it was determined whether the other two major proteins, i.e. TF and AT, present in the commercial PALP preparation in addition to PALP, also influence cisplatin-induced loss of body weight or not. The mouse MXT mammary tumor was developed as described in Example 3. In the first group, animals remained untreated during the whole observation period. In the second group, starting on the 7th day after tumor implantation, mice were administered 3-mg per 1-kg of cisplatin i.p. 6-times every second day. […]

Take “human albumin: human albumin, component of commercial PALP”: the “Effect on body weight in cisplatin-treated MXT tumor-bearing animals” value is “did not alter body weight”.
